Structures are written as SMILES.

Chains of the proteins cited; added tags and fusions are not shown.
UniProt P42336, whole entry K111N, looked up: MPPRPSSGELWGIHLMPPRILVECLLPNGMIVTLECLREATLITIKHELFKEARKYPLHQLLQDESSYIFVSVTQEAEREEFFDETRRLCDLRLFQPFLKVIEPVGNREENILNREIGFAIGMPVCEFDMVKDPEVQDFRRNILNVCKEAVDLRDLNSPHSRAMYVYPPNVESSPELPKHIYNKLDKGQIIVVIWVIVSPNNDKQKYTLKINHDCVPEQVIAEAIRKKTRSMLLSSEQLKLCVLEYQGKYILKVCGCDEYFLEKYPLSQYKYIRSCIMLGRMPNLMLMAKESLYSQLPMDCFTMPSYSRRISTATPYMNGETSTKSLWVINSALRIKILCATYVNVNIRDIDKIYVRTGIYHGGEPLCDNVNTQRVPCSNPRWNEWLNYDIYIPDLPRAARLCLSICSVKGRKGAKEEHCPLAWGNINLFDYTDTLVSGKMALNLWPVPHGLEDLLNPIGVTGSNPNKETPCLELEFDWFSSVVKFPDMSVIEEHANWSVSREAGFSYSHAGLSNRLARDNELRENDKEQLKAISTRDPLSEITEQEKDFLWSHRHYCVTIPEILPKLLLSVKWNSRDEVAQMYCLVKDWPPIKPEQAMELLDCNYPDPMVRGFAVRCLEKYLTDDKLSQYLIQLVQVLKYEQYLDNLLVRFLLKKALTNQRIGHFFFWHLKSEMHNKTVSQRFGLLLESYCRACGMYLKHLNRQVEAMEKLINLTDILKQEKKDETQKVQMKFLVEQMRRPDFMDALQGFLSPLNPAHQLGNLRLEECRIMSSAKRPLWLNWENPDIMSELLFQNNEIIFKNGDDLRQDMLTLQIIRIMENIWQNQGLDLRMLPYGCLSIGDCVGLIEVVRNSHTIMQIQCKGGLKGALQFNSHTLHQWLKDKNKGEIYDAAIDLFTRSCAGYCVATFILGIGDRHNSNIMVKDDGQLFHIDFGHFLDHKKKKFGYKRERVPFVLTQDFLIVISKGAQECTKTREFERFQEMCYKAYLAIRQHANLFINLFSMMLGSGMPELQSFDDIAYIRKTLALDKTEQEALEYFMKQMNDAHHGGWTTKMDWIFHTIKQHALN

From patent US9156831B2, “Chemical compounds” (ASTRAZENECA AB, priority 2013, dated 2015) come the findings set out here.

For the experiment, the target named is PI3K-α (Homo sapiens (Human), UniProt P42336, K111N). As to the kind of experiment: Phosphorylated AKT (Thr308) in BT474 cells (PI3K-α cell assay). It counts as cell-based. To be noted: Test protocol c, mean of replicates.

For `C[C@H](CO)C(=O)N1CCC(c2nc(-c3cnc(N)c(-c4nnc(C(C)(C)C)o4)n3)n(C)n2)CC1` [Example 6, (2R)-1-[4-[5-[5-amino-6-(5-tert-butyl-1,3,4-oxadiazol-2-yl)pyrazin-2-yl]-1-methyl-1,2,4-triazol-3-yl]-1-piperidyl]-3-hydroxy-2-methyl-propan-1-one], it took 530 nM to reach half-maximal inhibition (IC50). For the molecule `CCn1nc(C2CCN(C(=O)CC(=O)O)CC2)nc1-c1cnc(N)c(-c2nnc(C(C)(C)C)o2)n1` [Example 9, 3-[4-[5-[5-amino-6-(5-tert-butyl-1,3,4-oxadiazol-2-yl)pyrazin-2-yl]-1-ethyl-1,2,4-triazol-3-yl]-1-piperidyl]-3-oxo-propanoic acid], the IC50 (usually the point on the concentration scale where inhibition reaches its midpoint) came to 330 nM.
